The source of these data is patent US11927585B2, “Solvent-based inks and coatings for food contact applications” (SUN CHEMICAL CORPORATION, priority 2020, dated 2024).

The nature of the data set: Worst-case calculation, Application 3 coffee capsule exposure scenario.

The structures appear in SMILES notation. Only a part of the results on these compounds is given; other tests are left out.

Turning to `OCCN(CCO)CCO`, the “Worst-case calculation as a percentage of SML (or restriction), Application 3 (0.0913 m2 packaging)” value is, setting by setting: (product SBDEV977, 100% migration) 3.0 percentage of SML (or restriction); (product SBDEV1287, 100% migration) 3.0 percentage of SML (or restriction).
